Key:
Carbonic anhydrase 4 = Carbonic anhydrase 4 (Homo sapiens, UniProt P22748)
[1] = molecular target: Carbonic anhydrase 5B, mitochondrial (Homo sapiens, UniProt Q9Y2D0)

Protein sequences, listed by entry. Tags and fused reporters are not part of them. Lines headed by an entry give the natural chain unless they say otherwise; changes in a name come on top.
UniProt P22748: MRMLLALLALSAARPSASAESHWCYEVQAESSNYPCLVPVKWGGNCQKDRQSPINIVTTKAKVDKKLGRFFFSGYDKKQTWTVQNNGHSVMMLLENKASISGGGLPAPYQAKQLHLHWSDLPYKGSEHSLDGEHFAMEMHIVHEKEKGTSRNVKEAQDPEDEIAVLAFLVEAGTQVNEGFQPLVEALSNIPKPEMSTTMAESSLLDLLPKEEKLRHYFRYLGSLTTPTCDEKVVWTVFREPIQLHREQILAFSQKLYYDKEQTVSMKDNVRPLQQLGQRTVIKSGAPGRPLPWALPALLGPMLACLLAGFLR
UniProt Q9Y2D0: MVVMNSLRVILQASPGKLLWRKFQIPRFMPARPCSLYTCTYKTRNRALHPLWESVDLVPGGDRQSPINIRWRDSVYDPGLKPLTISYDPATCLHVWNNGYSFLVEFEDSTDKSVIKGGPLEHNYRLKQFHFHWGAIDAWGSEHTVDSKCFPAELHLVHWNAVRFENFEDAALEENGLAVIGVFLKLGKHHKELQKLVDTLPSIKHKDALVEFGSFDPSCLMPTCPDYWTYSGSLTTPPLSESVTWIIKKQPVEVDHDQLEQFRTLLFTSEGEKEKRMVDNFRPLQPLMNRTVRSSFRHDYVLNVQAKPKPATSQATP

Ki [1] [µM] | SMILES | Ki (Carbonic anhydrase 4) [µM]
 | Oc1ccccc1O [CATECHOL] | 10.9
10.5 | O=C(O)c1ccc(O)cc1 [PARABEN] | 
